Test [1] concerns the target Hsp90α-NT (human Hsp90α immobilized via the N-terminal) (Homo sapiens, UniProt P07900). Put plainly: Frontal chromatography on Hsp90α-NT column. The test is classed as binding. As to conditions: 10 mM Tris–HCl pH 7.4, 25 °C, ±SE.
For test [2], the target named is Hsp90α-CT (human Hsp90α immobilized via the C-terminal) (Homo sapiens, UniProt P07900). Put plainly: Frontal chromatography on Hsp90α-CT column. The test is classed as binding. As to conditions: 10 mM Tris–HCl pH 7.4, 25 °C, ±SE.

What is called Kd is the concentration at which binding is half-saturated. Low values mean higher affinity, high ones lower affinity.

isotetrandrine: the Kd in test [1] amounted to 46.3 ± 14.8 µM; in test [2], 29.9 ± 8.4 µM.

With berbamine, the values for the Kd in test [1] and in test [2] were 18.6 ± 3.8 µM and 18 ± 4.9 µM, respectively.

Source of the values: article PMC4632246 (Analytical biochemistry, 2012).
